Results as given in PubChem BioAssay (NCI).
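Dose response: 5 concentrations. Exposure: 48 h. Format: 96-well plates. Endpoint: linear interpolation; highest concentration if not reached. TGI denotes the concentration required for complete inhibition of growth.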

Columns and labels:
Test in all cases: growth of human tumour cells (NCI), 48 h
EKVX NSCLC = tested on: EKVX NSCLC
SNB-75 CNS = tested on: SNB-75 CNS
SK-MEL-28 melanoma = tested on: SK-MEL-28 melanoma
NCI-H23 lung = tested on: NCI-H23 lung
XF 498 CNS = tested on: XF 498 CNS
OVCAR-3 ovarian = tested on: OVCAR-3 ovarian
OVCAR-8 ovarian = tested on: OVCAR-8 ovarian
NCI-H460 lung = tested on: NCI-H460 lung
SK-MEL-5 melanoma = tested on: SK-MEL-5 melanoma
HCC-2998 colon = tested on: HCC-2998 colon
M19-MEL melanoma = tested on: M19-MEL melanoma
HOP-18 NSCLC = tested on: HOP-18 NSCLC
UO-31 renal = tested on: UO-31 renal
A549 NSCLC = tested on: A549 NSCLC
OVCAR-5 ovarian = tested on: OVCAR-5 ovarian
HCT-116 colon = tested on: HCT-116 colon
DLD-1 colon = tested on: DLD-1 colon
SF-268 CNS = tested on: SF-268 CNS
RXF-631 renal = tested on: RXF-631 renal
SK-OV-3 ovarian = tested on: SK-OV-3 ovarian
U251 CNS = tested on: U251 CNS
K-562 leukemia = tested on: K-562 leukemia
HOP-62 NSCLC = tested on: HOP-62 NSCLC
HOP-92 NSCLC = tested on: HOP-92 NSCLC
HL-60(TB) leukemia = tested on: HL-60(TB) leukemia
DMS 114 small cell lung = tested on: DMS 114 small cell lung
KM12 colon = tested on: KM12 colon
SNB-78 CNS = tested on: SNB-78 CNS
DMS 273 small cell lung = tested on: DMS 273 small cell lung
SF-539 CNS = tested on: SF-539 CNS
CAKI-1 renal = tested on: CAKI-1 renal
RPMI-8226 leukemia = tested on: RPMI-8226 leukemia
SN12C renal = tested on: SN12C renal
HT29 colon = tested on: HT29 colon
SR leukemia = tested on: SR leukemia
OVCAR-4 ovarian = tested on: OVCAR-4 ovarian
KM20L2 colon = tested on: KM20L2 colon
CCRF-CEM leukemia = tested on: CCRF-CEM leukemia
TK-10 renal = tested on: TK-10 renal
M14 melanoma = tested on: M14 melanoma
SNB-19 CNS = tested on: SNB-19 CNS
RXF 393 renal = tested on: RXF 393 renal
UACC-257 melanoma = tested on: UACC-257 melanoma
786-0 renal = tested on: 786-0 renal
NCI-H522 lung = tested on: NCI-H522 lung
HCT-15 colon = tested on: HCT-15 colon
LXFL 529 NSCLC = tested on: LXFL 529 NSCLC
A498 renal = tested on: A498 renal
MOLT-4 leukemia = tested on: MOLT-4 leukemia
SW-620 colon = tested on: SW-620 colon
IGROV1 ovarian = tested on: IGROV1 ovarian
UACC-62 melanoma = tested on: UACC-62 melanoma
NCI-H322M lung = tested on: NCI-H322M lung
ACHN renal = tested on: ACHN renal
SF-295 CNS = tested on: SF-295 CNS

Measured: TGI

Cc1ccccc1NC1CC(C)(C)NC(C)(C)C1
> 100 µM: EKVX NSCLC | SNB-75 CNS | SK-MEL-28 melanoma | NCI-H23 lung | XF 498 CNS | OVCAR-3 ovarian | OVCAR-8 ovarian | NCI-H460 lung | SK-MEL-5 melanoma | HCC-2998 colon | M19-MEL melanoma | HOP-18 NSCLC | UO-31 renal | A549 NSCLC | OVCAR-5 ovarian | HCT-116 colon | DLD-1 colon | SF-268 CNS | RXF-631 renal | SK-OV-3 ovarian | U251 CNS | K-562 leukemia | HOP-62 NSCLC | HOP-92 NSCLC | HL-60(TB) leukemia | DMS 114 small cell lung | KM12 colon | SNB-78 CNS | DMS 273 small cell lung | SF-539 CNS | CAKI-1 renal | RPMI-8226 leukemia | SN12C renal | HT29 colon | SR leukemia | OVCAR-4 ovarian | KM20L2 colon | CCRF-CEM leukemia | TK-10 renal | M14 melanoma | SNB-19 CNS | RXF 393 renal | UACC-257 melanoma | 786-0 renal | NCI-H522 lung | HCT-15 colon | LXFL 529 NSCLC | A498 renal | MOLT-4 leukemia | SW-620 colon | IGROV1 ovarian | UACC-62 melanoma | NCI-H322M lung | ACHN renal | SF-295 CNS
